US12030903B2, “Antiviral compounds” (Gilead Sciences, Inc., priority 2020, dated 2024)

Assays:
[1] = HEp-2 CC50 (cytotoxicity in uninfected HEp-2 cells); format: cell-based; settings: human, CellTiter Glo
Description: Instead, an uninfected cell mixture at the same density is added at 20 uL/well to plates containing prediluted compounds, also at 100 nL/sample. Assay plates are then incubated for 4 days followed by a cell viability test using the same CellTiter Glo reagent addition and measurement of luminescent readouts. Untreated cell and cells treated at 2 μM puromycin (Sigma, St. Louis, MO) serve as 100% and 0% cell viability control, respectively.

[2] = test system: Human monocyte-derived dendritic cells (moDCs); assay: moDC CC50 (CellTiter Glo viability); format: cell-based; settings: uninfected moDCs, 48 hours
Description: Human monocyte-derived dendritic cells (moDCs) were derived from CD14+ monocytes (AllCells) cultured in Human Mo-DC Differentiation medium containing GM-CSF and IL-4 (Miltenyi Biotec). On day 7, moDCs were harvested by mechanical disruption, washed and cultured in triplicate at […] cells/well in 96-well plates with compounds dispensed at graded doses (Hewlett-Packard D300 Digital Dispenser). All wells were normalized to 0.25% DMSO. After 48 hours, CellTiter Glo (Promega) was added and incubated for 10 minutes at room temp before reading on a luminometer. % viability curves were calculated against no compound and no cell control wells. CC50 values were determined using Prism Graphpad software.

| Compound | CC50 at 4 days [1] | CC50 [2] |
| --- | --- | --- |
| CCC(CC)COC(=O)[C@H](C)N[P@](=O)(OC[C@@]1(CF)O[C@@H](c2ccc3c(N)ncnn23)[C@H](OC(=O)C(C)C)[C@@H]1OC(=O)C(C)C)Oc1ccccc1 (single isomer, unassigned) [Example 62] | 16.8 µM |  |
| CCOC(=O)[C@H](C)NP(=O)(OC[C@@]1(CF)O[C@@H](c2ccc3c(N)ncnn23)[C@H](OC(=O)CC)[C@@H]1OC(=O)CC)Oc1ccccc1 (stereo partly drawn) [Example 25, (2R,3S,4S,5S)-5-(4-aminopyrrolo[2,1-f][1,2,4]triazin-7-yl)-2-((((((S)-1-ethoxy-1-oxopropan-2-yl)amino)(Phenoxy)phosphoryl)oxy)methyl)-2-(fluoromethyl) tetrahydrofuran-3,4-diyl dipropionate] |  | 12.2 µM |
